Reference: US12403104B2, “Compounds and methods of promoting myelination” (Case Western Reserve University, priority 2016, dated 2025)

The chains behind the UniProt entries cited, without tags or fusion partners. Where a name states a change or a piece, a line headed by the entry shows the natural chain unless it says otherwise.
UniProt P70245: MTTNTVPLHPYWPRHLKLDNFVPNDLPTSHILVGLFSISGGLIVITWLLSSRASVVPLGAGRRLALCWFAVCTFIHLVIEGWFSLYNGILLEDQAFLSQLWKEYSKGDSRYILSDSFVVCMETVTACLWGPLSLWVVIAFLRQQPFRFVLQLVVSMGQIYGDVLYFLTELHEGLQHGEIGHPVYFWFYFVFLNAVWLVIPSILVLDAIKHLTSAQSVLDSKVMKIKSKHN

Tests used:
OPCs = assay: GC/MS-based sterol profiling in OPCs; assay type: cell-based, mouse; settings: 24 h treatment (siRNA 96 h)
EBP = EBP (Mus musculus, UniProt P70245); assay: EBP enzymatic assay (GC/MS); assay type: biochemical; settings: 10 μM, zymostenol 25 μM

With Trans-U50488 the “sterol levels / sterol intermediate accumulation in OPCs” value (OPCs) was “induced accumulation of zymostenol and zymosterol and decreased basal sterol levels” and the “inhibition of EBP enzymatic activity” value (EBP) was “clear inhibition”.
